Results as given in patent US4579730A, “Pharmaceutical compositions containing insulin” (Hadassah Medical Organization, priority 1983, dated 1986).

Assays:
[1] = in the presence of deoxycholic acid and soybean trypsin inhibitor; cited from earlier work
[2] = during 60 minutes
[3] = Plasma 1R1 (insulin) levels in a diabetic dog after administration of insulin; type: in vivo; settings: 0.5 u/kg intramuscular injection
Description: An enterocoated capsule was prepared for oral administration of insulin to a diabetic dog.

Which “absorption from the intestine” value [1] does the source give for Insulin here?
The value was “effectively absorbed”.

And the “absorbed from the intestinal lumen into the blood stream” value [2]?
The value was 5-10%.

What about the Insulin ([3]; 0 min) of the same substance?
The Insulin was 0 μm/ml.

And the Insulin ([3]; 10 min)?
The Insulin was 73 μm/ml.

What about the Insulin ([3]; 20 min) of the same substance?
Its Insulin is 76 μm/ml.

And the Insulin ([3]; 30 min)?
Its Insulin is 213 μm/ml.

What about the Insulin ([3]; 45 min) of the same substance?
The Insulin was 220 μm/ml.

What about the Insulin ([3]; 60 min) of the same substance?
The Insulin was 81 μm/ml.

And the Insulin ([3]; 75 min)?
The Insulin was 120 μm/ml.

What about the Insulin ([3]; 90 min) of the same substance?
The Insulin was 61 μm/ml.

What about the Insulin ([3]; 120 min) of the same substance?
Its Insulin is 50 μm/ml.

What about the Insulin ([3]; 150 min) of the same substance?
Its Insulin is 18 μm/ml.

And the Insulin ([3]; 180 min)?
The Insulin was 25 μm/ml.
